Our source for the IC50 values is patent US4822775A, “Phenyl substituted dipeptide amides” (priority 1986, dated 1989).

The target of the test is opiate receptors isolated from rat brain. The note with it: 1 nM 3H-Naloxone, rat brain receptor membranes; standard screening dose 10^-5 molar (words such as Inactive refer to it); read-out: Opiate Binding, IC50. On the procedure:
Opiate Binding Assay. The test compounds were evaluated for their ability to displace the binding of ^3 H-Naloxone to opiate receptors isolated from rat brain. […] A purified homogenate of receptor membranes was prepared from the brains according to the method described by Chang and Cuatrecasas. (K.-J. Chang and P. Cuatrecasas. Multiple Opiate Receptors: Enkephalins And Morphine Bind To Receptors Of Different Specificity. J. Biol. Chem. 254, 2610-2618 (1979).) The brains were homogenized in 10 volumes of 0.32M sucrose and centrifuged twice at 6,000xg for 15 minutes. […] The supernatant was centrifuged at 40,000xg. […] The final pellet was resuspended in 2 volumes of 50 mM tris HCl (pH 7.4).
Levorphanol (1×10^-5 M) was used as the displacer for non-specific binding. […] Total assay volume was 1.0 ml.

The term IC50 denotes the concentration at which inhibition is half-maximal. Consider “2,6-dimethyl-L-tyrosyl-N-[2-(2-thienyl)ethyl]-D-alaninamide, monohydrochloride [Example 39]”, for which the IC50 came out at 1.2 nM.

Take “α-amino-4-hydroxy-2,6-dimethyl-N-[1R-methyl-2-oxo-2-(1,2,3,4-tetrahydro-1-quinolinyl)ethyl]benzenepropanamide, monohydrochloride [Example 30]”: the IC50 was 61 nM.
